This is a selection; strong and weak results do not stand in their true shares. Calls of active or inactive are those of the source. Calls follow the shape of the dose curve; as a rule, active = well fitted inhibition curve with a large enough effect; inconclusive = small, poorly fitted or top-dose-only effect; inactive = flat fitted curve, though single readings scatter.

Chains of the proteins cited; added tags and fusions are not shown. Lines headed by an entry give the natural chain unless they say otherwise; changes in a name come on top.
UniProt Q9HAZ1: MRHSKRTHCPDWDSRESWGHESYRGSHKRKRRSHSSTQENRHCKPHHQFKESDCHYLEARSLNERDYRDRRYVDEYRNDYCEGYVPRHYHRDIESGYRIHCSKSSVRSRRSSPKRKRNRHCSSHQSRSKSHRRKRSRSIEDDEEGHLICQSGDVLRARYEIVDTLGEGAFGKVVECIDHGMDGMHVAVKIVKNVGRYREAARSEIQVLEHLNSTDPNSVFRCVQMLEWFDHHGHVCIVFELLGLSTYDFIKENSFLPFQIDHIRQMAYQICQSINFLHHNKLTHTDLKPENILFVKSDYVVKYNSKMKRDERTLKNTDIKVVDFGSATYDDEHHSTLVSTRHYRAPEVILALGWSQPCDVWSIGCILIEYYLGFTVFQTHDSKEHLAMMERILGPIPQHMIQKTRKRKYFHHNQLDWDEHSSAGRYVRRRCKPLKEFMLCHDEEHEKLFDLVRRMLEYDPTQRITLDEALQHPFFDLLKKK

One compound from PubChem BioAssay AID1969 (National Center for Advancing Translational Sciences (NCATS), 2009) can be followed below.

This experiment has as its target Dual specificity protein kinase CLK4 (Homo sapiens) (UniProt Q9HAZ1). The experiment is described as follows: Confirmaiton Assay for Inhibitors of CDC-like Kinase 4 (ADP-Glo Assay). The note with it: recombinant Clk4, RS peptide, ADP-Glo luminescence. As for the experimental part: NIH Molecular Libraries Probe Production Centers Network [MLPCN] NIH Chemical Genomics Center [NCGC] MLPCN Grant: 1R03MH084827-01 Assay Submitter (PI): Tom Misteli NCGC Assay Overview: Clk4 (Invitrogen, cat# PV3839) was assayed using ATP and the RS repeat peptide (AnaSpec cat # 61722) as substrates. In the assay, the ADP levels were detected using Promega ADP-Glo technology wherein the remaining ATP from the kinase reaction is first depleted with an ATPase reagent followed by a reagent that contains and enzyme which converts the ADP produced to ATP as well as Ultra-Glo luciferase and D-luciferin which generates a bioluminescence signal from the ATP. The positive control for the assay was TG003 (Sigma-Aldrich, cat# 300801-52-9) which has been described as an inhibitor of Clk 4[1].
NCGC Assay Protocol Summary: Two uL/well of substrate-buffer solution (100 uM RS peptide, 1 uM ATP, 1x ADP-Glo Buffer A, 2 mM MgCl2, 0.5 mM EGTA, 2.5 mM DTT, 0.01% Triton X-100, final concentrations) was dispensed into 1536-well plates (Greiner, solid white, medium binding assay plates) with the Aurora Discovery BioRAPTR Flying Reagent Dispenser (FRD; Beckton-Dickenson). […] Luminescence was detected after 30 min room temperature incubation with the Perkin Elmer Viewlux.
As to `c1csc(CNc2ncnc3ccc(-c4ccc5c(c4)OCCO5)cc23)c1`, the Potency is active: 0.141 µM.
